Assay: Antibody/protein UV irradiation with Amplex Red quantitative assay for hydrogen peroxide
Type: biochemical
Method: Aliquots (10 μL) were removed at timed intervals throughout the assay. H2O2 concentration was determined by the amplex red method. Each data point is reported as the mean±SEM of at least duplicate measurements: ? polyclonal (poly) immunoglobulin (Ig) G, human; O poly-IgG, horse; ? poly-IgG, sheep; ∇ monoclonal (m) IgG (WD1-6G6), murine; ? poly-IgM, human; ? mIgG (92H2), murine; ¦ β-galactosidase (β-gal); ? chick ovalbumin (OVA); ? a-lactalbumin (a-lact); ? bovine serum albumin (BSA).
Antibody/Protein Irradiation.
Quantitative Assay for Hydrogen Peroxide. An aliquot (20 μl) from the protein solution was removed and added into a well of a 96-well microtiter plate (Costar) containing reaction buffer (80 μl). […] The fluorescence of the well components was then measured using a CytoFluor Multiwell Plate Reader (Series 4000, PerSeptive Biosystems, Framingham, Mass.; Ex/Em: 530/580 nm). The hydrogen peroxide concentration was determined using a standard curve. […]
A suspension of crystals of the Fab fragment of 1D4 (2 μl) was diluted with PBS (198 μl, pH 7.4) and vortexed gently. […] Following UV irradiation for 30 min, Amplex Red working solution (100 μl) was added, and the mixture was viewed on a fluorescence microscope.
Denaturation. […] The concentration of H2O2 was determined after 30 min.

β2-microglobulin: member of the immunoglobulin superfamily
generation of H2O2: does not generate H2O2
